Data: US5654427A, “Indolocarbazole derivatives to treat a pathological condition of the prostate” (Kyowa Hakko Kogyo Co., Ltd., priority 1995, dated 1997)

Chains of the proteins cited; added tags and fusions are not shown. Residues count along the entry.
UniProt P35739, 33-799: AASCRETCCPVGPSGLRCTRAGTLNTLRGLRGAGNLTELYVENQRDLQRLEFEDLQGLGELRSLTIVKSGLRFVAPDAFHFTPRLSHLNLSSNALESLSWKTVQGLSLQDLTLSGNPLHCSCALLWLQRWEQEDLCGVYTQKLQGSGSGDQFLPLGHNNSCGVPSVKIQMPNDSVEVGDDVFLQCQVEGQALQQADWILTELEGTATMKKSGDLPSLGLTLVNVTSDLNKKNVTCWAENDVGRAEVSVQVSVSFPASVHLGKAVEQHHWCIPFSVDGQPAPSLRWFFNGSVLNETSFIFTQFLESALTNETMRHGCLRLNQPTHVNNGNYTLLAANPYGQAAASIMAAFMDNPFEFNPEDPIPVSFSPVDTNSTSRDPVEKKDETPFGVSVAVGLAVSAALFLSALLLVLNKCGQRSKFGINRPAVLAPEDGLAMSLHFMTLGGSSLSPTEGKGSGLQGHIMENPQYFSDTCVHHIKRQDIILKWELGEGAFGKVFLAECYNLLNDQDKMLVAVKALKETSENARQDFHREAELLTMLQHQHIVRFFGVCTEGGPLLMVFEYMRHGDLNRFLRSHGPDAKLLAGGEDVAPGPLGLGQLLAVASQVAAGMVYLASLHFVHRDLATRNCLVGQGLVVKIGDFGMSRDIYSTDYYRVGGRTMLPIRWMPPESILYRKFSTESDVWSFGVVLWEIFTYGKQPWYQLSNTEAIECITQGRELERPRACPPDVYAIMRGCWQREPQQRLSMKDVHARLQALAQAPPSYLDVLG

Biological target: T1, trkA (Rattus norvegicus, UniProt P35739)
T1 construct: are rat pheochromocytoma cells that bear trkA; host or cells: PC12 rat pheochromocytoma cells
Assay: inhibition of NGF-stimulated trk autophosphorylation (tyrosine phosphorylation) in PC12 cells, anti-phosphotyrosine Western blot; further: key: +: Inhibited phosphorylation; -: Did not inhibit phosphorylation
Format: cell-based
Method: Candidate compounds for the inhibition of prostate cell proliferation were selected according to their ability to inhibit the tyrosine kinase activity associated with the trks.
PC12 cells (ATCC #CRL1721) are rat pheochromocytoma cells that bear trkA and differentiate into sympathetic neurons when treated with NGF. […] Cells were incubated at 37° C. in a humidified atmosphere of 10% CO2 and 90% air. […] The cells in each culture were disrupted and cell lysates were prepared by standard techniques known to those skilled in the art. Each lysate was incubated with anti-trk antibody whereby immune complexes were formed. […] The immune complexes were collected on Protein A-Sepharose beads, separated by SDS-polyacrylamide gel electrophoresis (SDS-PAGE), and transferred to polyvinylidene difluoride (PVDF) membranes (Millipore Corp., Bedford, Mass.), using techniques well known to those skilled in the art. The membranes were incubated with anti-phosphotyrosine antibody, which binds to the tyrosine phosphorylated trks, but not to the un-phosphorylated form of trks. Proteins bound to anti-phosphotyrosine antibody were visualized with enhanced chemiluminescence (ECL, Amersham), and are shown as dark "spots" in FIG. 1.
Measurement of the autophosphorylation of trk provides a good index of trk tyrosine kinase activity, and thereby of trk stimulation. […]

CC12OC(CC1(O)CO)n1c3ccccc3c3c4c(c5c6ccccc6n2c5c31)CNC4=O (stereo not shown) [Compound I-2]
trk 100 nM (inhibition of phosphorylation): +
